IntAct's records for PubMed 23178593

B1: X-ray repair cross-complementing protein 5 (Homo sapiens), P13010 (parent)
chain: MVRSGNKAAVVLCMDVGFTMSNSIPGIESPFEQAKKVITMFVQRQVFAENKDEIALVLFGTDGTDNPLSGGDQYQNITVHRHLMLPDFDLLEDIESKIQPGSQQADFLDALIVSMDVIQHETIGKKFEKRHIEIFTDLSSRFSKSQLDIIIHSLKKCDISLQFFLPFSLGKEDGSGDRGDGPFRLGGHGPSFPLKGITEQQKEGLEIVKMVMISLEGEDGLDEIYSFSESLRKLCVFKKIERHSIHWPCRLTIGSNLSIRIAAYKSILQERVKKTWTVVDAKTLKKEDIQKETVYCLNDDDETEVLKEDIIQGFRYGSDIVPFSKVDEEQMKYKSEGKCFSVLGFCKSSQVQRRFFMGNQVLKVFAARDDEAAAVALSSLIHALDDLDMVAIVRYAYDKRANPQVGVAFPHIKHNYECLVYVQLPFMEDLRQYMFSSLKNSKKYAPTEAQLNAVDALIDSMSLAKKDEKTDTLEDLFPTTKIPNPRFQRLFQCLLHRALHPREPLPPIQQHIWNMLNPPAEVTTKSQIPLSKIKTLFPLIEAKKKDQVTAQEIFQDNHEDGPTAKKLKTEQGGAHFSVSSLAEGSVTSVGSVNPAENFRVLVKQKKASFEEASNQLINHIEQFLDTNETPYFMKSIDCIRAFREEAIKFSEEQRFNNFLKALQEKVEIKQLNHFWEIVVQDGITLITKEEASGSSVTAEEAKKFLAPKDKPSGDTAAVFEEGGDVDDLLDMI
partner: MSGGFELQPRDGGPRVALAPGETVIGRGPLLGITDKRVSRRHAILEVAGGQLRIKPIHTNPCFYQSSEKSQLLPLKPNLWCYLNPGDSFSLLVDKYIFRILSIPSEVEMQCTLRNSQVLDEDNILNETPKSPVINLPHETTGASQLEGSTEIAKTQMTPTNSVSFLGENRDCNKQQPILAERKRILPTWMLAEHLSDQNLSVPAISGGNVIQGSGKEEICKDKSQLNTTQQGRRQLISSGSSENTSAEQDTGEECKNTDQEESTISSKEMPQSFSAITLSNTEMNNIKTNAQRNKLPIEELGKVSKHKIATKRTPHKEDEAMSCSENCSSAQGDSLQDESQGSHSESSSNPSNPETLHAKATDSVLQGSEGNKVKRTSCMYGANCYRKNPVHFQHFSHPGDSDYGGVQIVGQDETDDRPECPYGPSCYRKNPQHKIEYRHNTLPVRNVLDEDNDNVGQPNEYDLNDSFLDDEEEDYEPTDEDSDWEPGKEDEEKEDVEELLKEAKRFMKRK

Variants of: B1
Conditions: with aplf_human APLF

Variant	effect of a mutation on the interaction
L169R	decreasing interaction

Variants of: B1
Conditions: with aplf_human APLF
Remark: another data set of the same source

Variant	effect of a mutation on the interaction
L68R	disrupting interaction

Variants of: B1
Conditions: with aplf_human APLF
Remark: another data set of the same source

Variant	effect of a mutation on the interaction
Y74R	disrupting interaction

Variants of: B1
Conditions: with aplf_human APLF
Remark: another data set of the same source

Variant	effect of a mutation on the interaction
I112R	disrupting interaction
